{
  "source": "patent EP2710378B1",
  "about": "“METHOD TO PROGNOSE VIRAL INFECTION BY MEASURING T CELL RESPONSE OR AUTO-ANTIBODIES TO APOPTOTIC EPITOPES” (Università degli Studi di Roma \"La Sapienza\", priority 2011, dated 2012)",
  "data": [
    {"test_system": "HLA-A2", "assay_type": "binding, Human", "conditions": "not given", "values": [
      {"compound": "CSCC[C@H](NC(=O)[C@@H](N)CCCCN)C(=O)N[C@@H](CC(N)=O)C(=O)N1CCC[C@H]1C(=O)N1CCC[C@H]1C(=O)N[C@@H](CCCCN)C(=O)N[C@@H](Cc1ccccc1)C(=O)N[C@@H](CO)C(=O)N[C@@H](CCCCN)C(=O)N[C@H](C(=O)O)C(C)C", "note": "[compound 103]", "Alleles bound": 3},
      {"compound": "CC[C@H](C)[C@H](NC(=O)CNC(=O)[C@H](Cc1c[nH]cn1)NC(=O)[C@H](CCC(=O)O)NC(=O)[C@@H](NC(=O)[C@@H]1CCCN1C(=O)[C@H](Cc1ccc(O)cc1)NC(=O)[C@H](CCCCN)NC(=O)[C@H](CC(C)C)NC(=O)[C@@H](N)[C@@H](C)O)[C@@H](C)CC)C(=O)O", "note": "[compound 6]", "Alleles bound": 4},
      {"compound": "CC[C@H](C)[C@H](NC(=O)[C@H](CCSC)NC(=O)[C@@H](N)CCC(=O)O)C(=O)N[C@@H](CCC(N)=O)C(=O)N[C@@H](CC(C)C)C(=O)N[C@@H](CCC(N)=O)C(=O)N[C@@H](CCC(=O)O)C(=O)N[C@@H](CCC(=O)O)C(=O)N[C@@H](CC(C)C)C(=O)O", "note": "[compound 120]", "Alleles bound": 2},
      {"compound": "CC[C@H](C)[C@H](N)C(=O)N[C@@H](CC(C)C)C(=O)N[C@@H](CC(C)C)C(=O)N[C@@H](C)C(=O)N[C@@H](CCC(=O)O)C(=O)N[C@@H](CC(C)C)C(=O)N[C@@H](CCC(=O)O)C(=O)N[C@@H](CCC(N)=O)C(=O)N[C@@H](CC(C)C)C(=O)O", "note": "[compound 201]", "Alleles bound": 4}
    ]},
    {"test_system": "HLA-A2", "assay_type": "binding, Human", "conditions": "Table 9, peptides derived from not fragmented proteins; number of the five HLA-A2 alleles bound", "values": [
      {"compound": "CC(C)C[C@H](NC(=O)[C@H](C)NC(=O)[C@H](CCCNC(=N)N)NC(=O)[C@H](CC(C)C)NC(=O)CNC(=O)[C@H](Cc1c[nH]cn1)NC(=O)[C@H](CCCCN)NC(=O)[C@@H](NC(=O)[C@H](CC(C)C)NC(=O)[C@@H](N)CCC(=O)O)C(C)C)C(=O)O", "note": "[compound 245]", "Alleles bound": 3},
      {"compound": "CC(C)C[C@H](NC(=O)[C@@H](NC(=O)[C@H](CCC(=O)O)NC(=O)[C@H](CCCNC(=N)N)NC(=O)[C@H](CC(C)C)NC(=O)[C@H](C)NC(=O)[C@H](CCCNC(=N)N)NC(=O)[C@H](CC(C)C)NC(=O)CN)[C@@H](C)O)C(=O)O", "note": "[compound 247]", "Alleles bound": 2}
    ]},
    {"test_system": "HLA-A2", "assay_type": "binding, Human", "conditions": "Table 11, peptides derived from apoptotic cell-associated proteins, pools 1-4; number of the five HLA-A2 alleles bound", "values": [
      {"compound": "CC(C)C[C@H](NC(=O)[C@H](CCCNC(=N)N)NC(=O)[C@H](CCC(=O)O)NC(=O)[C@H](CCC(=O)O)NC(=O)[C@H](CCC(=O)O)NC(=O)CNC(=O)[C@H](CCC(=O)O)NC(=O)[C@H](CC(C)C)NC(=O)[C@H](CC(C)C)NC(=O)[C@@H](N)CCCCN)C(=O)O", "Alleles bound": 2},
      {"compound": "CC(C)C[C@H](NC(=O)[C@H](C)N)C(=O)N[C@@H](CCCNC(=N)N)C(=O)N[C@H](C(=O)N[C@@H](CC(=O)O)C(=O)N[C@@H](Cc1ccc(O)cc1)C(=O)N[C@@H](CC(N)=O)C(=O)N[C@@H](C)C(=O)N[C@@H](CO)C(=O)N[C@H](C(=O)O)C(C)C)[C@@H](C)O", "Alleles bound": 4},
      {"compound": "CC(C)C[C@H](NC(=O)[C@H](CC(N)=O)NC(=O)[C@H](CO)NC(=O)[C@H](CC(C)C)NC(=O)[C@H](CCC(N)=O)NC(=O)[C@H](CO)NC(=O)[C@H](CO)NC(=O)[C@H](CC(C)C)NC(=O)[C@@H](N)CO)C(=O)O", "Alleles bound": 4}
    ]},
    {"test_system": "HLA-A2", "assay_type": "binding, Human", "conditions": "Table 12, peptides derived from apoptotic cell-associated proteins, pools 5-6; number of the five HLA-A2 alleles bound", "values": [
      {"compound": "CC(C)C[C@H](NC(=O)[C@@H](N)CCCCN)C(=O)N[C@@H](CCCNC(=N)N)C(=O)N[C@@H](CCCNC(=N)N)C(=O)NCC(=O)N[C@@H](CC(=O)O)C(=O)N[C@@H](CC(C)C)C(=O)N1CCC[C@H]1C(=O)N[C@@H](Cc1ccccc1)C(=O)N[C@H](C(=O)O)C(C)C", "Alleles bound": 4},
      {"compound": "CC[C@H](C)[C@H](NC(=O)[C@@H](NC(=O)[C@@H](NC(=O)[C@H](Cc1c[nH]cn1)NC(=O)CNC(=O)[C@H](CC(N)=O)NC(=O)[C@H](CO)NC(=O)[C@H](CC(C)C)NC(=O)[C@@H](N)Cc1ccccc1)C(C)C)[C@@H](C)O)C(=O)O", "Alleles bound": 4}
    ]},
    {"test_system": "HLA-A2", "assay_type": "binding, Human", "conditions": "number of the five alleles A*0201, A*0202, A*0203, A*0206, A*6802 bound", "values": [
      {"compound": "CC(C)C[C@H](NC(=O)[C@@H](N)CCCCN)C(=O)N[C@@H](CO)C(=O)N1CCC[C@H]1C(=O)N[C@@H](CO)C(=O)N1CCC[C@H]1C(=O)N[C@@H](CO)C(=O)N[C@@H](CO)C(=O)N[C@@H](CCCNC(=N)N)C(=O)N[C@H](C(=O)O)C(C)C", "note": "[compound 36]", "Alleles bound": 3},
      {"compound": "CC[C@H](C)[C@H](NC(=O)[C@H](Cc1ccccc1)NC(=O)[C@H](CCSC)NC(=O)[C@@H](NC(=O)[C@H](Cc1c[nH]cn1)NC(=O)[C@H](CC(N)=O)NC(=O)[C@H](Cc1ccccc1)NC(=O)[C@H](CC(C)C)NC(=O)[C@@H](N)CCC(N)=O)[C@@H](C)O)C(=O)O", "note": "[compound 64]", "Alleles bound": 5},
      {"compound": "CC[C@H](C)[C@H](NC(=O)[C@H](CO)NC(=O)[C@H](CC(C)C)NC(=O)[C@H](CC(N)=O)NC(=O)[C@H](Cc1c[nH]c2ccccc12)NC(=O)[C@H](CCC(=O)O)NC(=O)[C@H](Cc1c[nH]c2ccccc12)NC(=O)[C@H](CO)NC(=O)[C@H](CC(C)C)NC(=O)[C@@H](N)Cc1c[nH]cn1)C(=O)O", "note": "[compound 189]", "Alleles bound": 4},
      {"compound": "CC[C@H](C)[C@H](NC(=O)[C@H](CO)NC(=O)[C@H](CCC(N)=O)NC(=O)[C@H](CC(=O)O)NC(=O)[C@H](CCC(=O)O)NC(=O)[C@H](CCCNC(=N)N)NC(=O)[C@H](CC(=O)O)NC(=O)[C@H](CCC(N)=O)NC(=O)[C@H](CCSC)NC(=O)[C@@H](N)CCSC)C(=O)O", "note": "[compound 123]", "Alleles bound": 2},
      {"compound": "CC[C@H](C)[C@H](NC(=O)[C@H](CCC(N)=O)NC(=O)[C@H](CCC(=O)O)NC(=O)[C@H](CCCCN)NC(=O)[C@H](Cc1ccc(O)cc1)NC(=O)[C@H](CC(C)C)NC(=O)[C@@H](N)CCC(N)=O)C(=O)N[C@@H](C)C(=O)N[C@@H](CCCCN)C(=O)N[C@@H](CC(C)C)C(=O)O", "note": "[compound 87]", "Alleles bound": 4},
      {"compound": "CC[C@H](C)[C@H](NC(=O)[C@H](CCC(N)=O)NC(=O)[C@H](CC(=O)O)NC(=O)[C@H](CCCCN)NC(=O)[C@H](CC(C)C)NC(=O)[C@@H](N)CC(=O)O)C(=O)N[C@@H](C)C(=O)N[C@@H](CCC(N)=O)C(=O)N[C@@H](CC(C)C)C(=O)O", "note": "[compound 45]", "Alleles bound": 1},
      {"compound": "CC(C)C[C@H](NC(=O)[C@H](CCCCN)NC(=O)[C@H](C)NC(=O)[C@H](Cc1c[nH]cn1)NC(=O)[C@H](Cc1ccc(O)cc1)NC(=O)[C@@H](NC(=O)[C@H](CCC(N)=O)NC(=O)[C@H](CCC(=O)O)NC(=O)[C@H](CC(C)C)NC(=O)[C@@H](N)CCC(=O)O)[C@@H](C)O)C(=O)O", "note": "[compound 55]", "Alleles bound": 0},
      {"compound": "CC[C@H](C)[C@H](NC(=O)[C@@H](NC(=O)[C@@H](NC(=O)[C@H](Cc1cnc[nH]1)NC(=O)CNC(=O)[C@H](CC(N)=O)NC(=O)[C@H](CO)NC(=O)[C@H](CC(C)C)NC(=O)[C@@H](N)Cc1ccccc1)C(C)C)[C@@H](C)O)C(=O)O", "note": "[compound 73]", "Alleles bound": 4}
    ]},
    {"test_system": "HLA-A2", "assay_type": "binding, Human", "conditions": "number of the five alleles A*0201, A*0202, A*0203, A*0206, A*6802 bound; Table 13", "values": [
      {"compound": "CC[C@H](C)[C@H](NC(=O)[C@H](CO)NC(=O)[C@@H](NC(=O)[C@H](CC(N)=O)NC(=O)[C@H](CCCCN)NC(=O)[C@@H](NC(=O)[C@@H](NC(=O)[C@H](CC(C)C)NC(=O)[C@@H](N)CC(=O)O)[C@@H](C)O)[C@@H](C)O)C(C)C)C(=O)O", "Alleles bound": 3},
      {"compound": "CC[C@H](C)[C@H](NC(=O)[C@H](CC(N)=O)NC(=O)[C@H](CCCCN)NC(=O)CNC(=O)[C@H](CC(N)=O)NC(=O)[C@H](CC(C)C)NC(=O)[C@@H](N)CCC(=O)O)C(=O)N[C@@H](CCC(=O)O)C(=O)N[C@@H](CC(=O)O)C(=O)N[C@H](C(=O)O)C(C)C", "Alleles bound": 3},
      {"compound": "CSCC[C@H](NC(=O)[C@@H](N)Cc1ccccc1)C(=O)N[C@@H](CCC(=O)O)C(=O)N[C@@H](CS)C(=O)N[C@@H](CC(N)=O)C(=O)N[C@@H](CC(C)C)C(=O)N[C@@H](CC(N)=O)C(=O)N[C@@H](CCC(=O)O)C(=O)N[C@@H](CC(C)C)C(=O)N[C@H](C(=O)O)C(C)C", "Alleles bound": 2}
    ]}
  ]
}
